As a reminder, the IC50 is the point on the concentration scale where inhibition reaches its midpoint.

Amino acid sequences for entries named in this document (tags omitted). A change or cut given only in a name is not applied to a line headed by its entry. Residues count along the entry.
UniProt O88554: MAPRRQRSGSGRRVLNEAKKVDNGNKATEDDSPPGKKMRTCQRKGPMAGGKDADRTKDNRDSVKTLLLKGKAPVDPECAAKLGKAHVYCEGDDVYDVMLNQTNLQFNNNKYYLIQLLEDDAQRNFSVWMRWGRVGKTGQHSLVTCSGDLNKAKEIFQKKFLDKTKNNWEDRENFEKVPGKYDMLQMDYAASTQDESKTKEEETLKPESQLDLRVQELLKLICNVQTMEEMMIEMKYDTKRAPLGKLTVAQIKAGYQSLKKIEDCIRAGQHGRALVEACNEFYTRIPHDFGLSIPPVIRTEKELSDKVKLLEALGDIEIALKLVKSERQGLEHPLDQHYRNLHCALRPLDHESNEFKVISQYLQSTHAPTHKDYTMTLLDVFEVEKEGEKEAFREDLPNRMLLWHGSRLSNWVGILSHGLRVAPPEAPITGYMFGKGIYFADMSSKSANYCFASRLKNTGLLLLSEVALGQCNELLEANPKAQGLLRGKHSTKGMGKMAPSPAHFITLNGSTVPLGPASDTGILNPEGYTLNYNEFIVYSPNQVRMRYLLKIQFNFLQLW
UniProt Q9H2K2, 959-1164: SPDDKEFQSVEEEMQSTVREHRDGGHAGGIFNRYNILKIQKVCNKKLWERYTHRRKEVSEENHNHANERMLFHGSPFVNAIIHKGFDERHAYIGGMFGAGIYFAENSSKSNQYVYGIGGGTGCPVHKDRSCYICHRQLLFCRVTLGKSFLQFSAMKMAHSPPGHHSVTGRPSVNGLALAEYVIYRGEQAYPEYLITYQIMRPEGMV
UniProt P09874, whole entry: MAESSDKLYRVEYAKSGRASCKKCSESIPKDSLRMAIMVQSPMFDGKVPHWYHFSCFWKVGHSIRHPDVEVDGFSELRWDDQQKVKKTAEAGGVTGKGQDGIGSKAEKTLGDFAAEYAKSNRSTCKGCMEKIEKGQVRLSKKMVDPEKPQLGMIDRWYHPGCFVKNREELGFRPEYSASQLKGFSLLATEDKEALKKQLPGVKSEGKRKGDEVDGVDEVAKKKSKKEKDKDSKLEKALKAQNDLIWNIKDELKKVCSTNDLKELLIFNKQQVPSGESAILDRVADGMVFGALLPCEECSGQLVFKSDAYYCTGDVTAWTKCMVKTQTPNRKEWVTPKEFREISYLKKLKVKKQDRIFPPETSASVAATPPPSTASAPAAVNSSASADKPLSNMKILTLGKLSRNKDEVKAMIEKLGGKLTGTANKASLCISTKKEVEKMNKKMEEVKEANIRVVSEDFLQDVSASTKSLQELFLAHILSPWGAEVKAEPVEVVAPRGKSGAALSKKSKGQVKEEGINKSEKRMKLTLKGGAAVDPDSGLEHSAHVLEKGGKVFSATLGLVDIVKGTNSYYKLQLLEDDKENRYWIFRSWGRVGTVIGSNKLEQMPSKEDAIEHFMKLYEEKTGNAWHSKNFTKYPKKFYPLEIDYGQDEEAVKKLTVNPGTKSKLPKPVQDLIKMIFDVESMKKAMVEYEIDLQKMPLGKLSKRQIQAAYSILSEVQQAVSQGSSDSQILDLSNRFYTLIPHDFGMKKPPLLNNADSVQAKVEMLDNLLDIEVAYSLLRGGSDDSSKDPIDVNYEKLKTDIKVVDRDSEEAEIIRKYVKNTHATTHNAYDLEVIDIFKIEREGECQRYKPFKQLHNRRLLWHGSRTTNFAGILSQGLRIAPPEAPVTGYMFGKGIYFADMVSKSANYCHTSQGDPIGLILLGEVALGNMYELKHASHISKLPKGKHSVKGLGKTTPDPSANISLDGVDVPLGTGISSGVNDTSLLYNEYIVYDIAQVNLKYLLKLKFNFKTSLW

Where two headings read alike, the source gives them in different places.

Here are results for 9 compounds from patent US9227982B2, “4-oxo-3,5,7,8-tetrahydro-4H-pyrano[4,3-d]pyrminidinyl compounds for use as tankyrase inhibitors” (NOVARTIS AG, priority 2011, dated 2016).

Holding throughout (format): biochemical
In one assay the target is PARP2 (Mus musculus (Mouse), UniProt O88554). Kind of assay: PARP2 autoparsylation enzymatic assay (LC/MS detection of nicotinamide). From the text:
(§1) The human tankyrase 1 PARP catalytic domain, TNKS1P, was cloned into a pDONR221 vector using the Invitrogen Gateway Technology. This entry clone was then subcloned into the destination vector pDEST20 to obtain the N-terminal Glutathione S-transferase (GST)-tagged fusion protein. GST-TNKS1P was then expressed in Sf21 cells using the Invitrogen baculovirus expression system (Invitrogen-Bac-to-Bac® Baculovirus Expression System, Version D). The protein was purified by a GSTrap column (GE Healthcare). The N-terminal GST-tagged tankyrase 2 protein PARP domain, TNKS2P, was cloned, expressed, and purified in a similar manner.
(§2) The autoparsylation activity of the TNKS 1/2 or PARP1/2 enzymes was measured by the liquid chromatography-mass spectrometry (LC/MS) detection of nicotinamide as readout. Compound activity in inhibiting the TNKS and PARP autoparsylation was evaluated by IC50 measurements. […] For the background control wells, 10 μL of the 5× quenching solution per well was added prior to the addition of β-NAD^+. The % Inhibition was calculated as: (Control−Sample)/(Control−Background)*100.

Assay [1] addresses TNKS2 (GST-tagged tankyrase 2 PARP domain, TNKS2P) (Homo sapiens (Human), UniProt Q9H2K2). Kind of assay: TNKS2 autoparsylation enzymatic assay (LC/MS detection of nicotinamide). The settings on record: 20 nM enzyme, 250 μM β-NAD+, 60 min, read-out: TNKS2 AP IC50.
Source text: as §1, with “manner. Human PARP1 (Cat. No. 4668-100-01) and activated DNA (Cat. No. 4671-096-06) were purchased from Trevigen, Inc. PARP2 (Cat. No. ALX-201-064-C020) was purchased from Alexis Biochemical.” for “manner.”
The % Inhibition was calculated as: (Control−Sample)/(Control−Background)*100. “Control” is the average value of 8 wells without compound; and “Background” is the average of 8 wells mixed with 5× quenching solution measured prior to initiation of the reaction.

The target of another assay is Human PARP1 (Homo sapiens (Human), UniProt P09874). Briefly: PARP1 autoparsylation enzymatic assay (LC/MS detection of nicotinamide). The following applies: 20 nM enzyme, 250 μM β-NAD+, 60 min.
Source text: as §1, §2

With `O=C(CCc1ccccc1)N(Cc1nc2c(c(=O)[nH]1)COCC2)Cc1cccs1` [Example 1], on PARP2 (autoparsylation, 20 nM enzyme, 250 μM β-NAD+, 60 min, read-out: PARP2 IC50), the IC50 was above 19000 nM.
With `O=C(CCc1ccc(F)cc1)N(Cc1nc2c(c(=O)[nH]1)COCC2)Cc1cccs1` [Example 2, 3-(4-Fluoro-phenyl)-N-(4-oxo-3,5,7,8-tetrahydro-4H-pyrano[4,3-d]pyrimidin-2-ylmethyl)-N-thiophen-2-ylmethyl-propionamide], the half-inhibitory concentration (IC50) in assay [1] turned out to be 78 ± 5 nM.
For the compound `O=C(CCc1ccccc1F)N(Cc1nc2c(c(=O)[nH]1)COCC2)Cc1cccs1` [Example 4, 3-(2-Fluoro-phenyl)-N-(4-oxo-3,5,7,8-tetrahydro-4H-pyrano[4,3-d]pyrimidin-2-ylmethyl)-N-thiophen-2-ylmethyl-propionamide], the IC50 in assay [1] came to 64 ± 15 nM.
With `O=C(CCc1cccc(F)c1)N(Cc1nc2c(c(=O)[nH]1)COCC2)Cc1cccs1` [Example 5, 3-(3-Fluorophenyl)-N-((4-oxo-4,5,7,8-tetrahydro-3H-pyrano[4,3-d]pyrimidin-2-yl)methyl)-N-(thiophen-2-ylmethyl)propanamide], the IC50 in assay [1] turned out to be 284 ± 56 nM.
For the compound `O=C(CCc1ccccc1O)N(Cc1nc2c(c(=O)[nH]1)COCC2)Cc1cccs1` [Example 6, 3-(2-Hydroxy-phenyl)-N-(4-oxo 3,5,7,8-tetrahydro-4H-pyrano[4,3-d]pyrimidin-2-ylmethyl)-N-thiophen-2-ylmethyl-propionamide], the IC50 in assay [1] turned out to be 766 ± 23 nM.
With `O=C(CCc1cccc(O)c1)N(Cc1nc2c(c(=O)[nH]1)COCC2)Cc1cccs1` [Example 7, 3-(3-Hydroxy-phenyl)-N-(4-oxo-3,5,7,8-tetrahydro-4H-pyrano[4,3-d]pyrimidin-2-ylmethyl)-N-thiophen-2-ylmethyl-propionamide], the IC50 in assay [1] was 178 ± 16 nM; on PARP2 it was above 19000 nM.
Consider `O=C(CCc1ccncc1)N(Cc1nc2c(c(=O)[nH]1)COCC2)Cc1cccs1` [Example 11, N-((4-Oxo-4,5,7,8-tetrahydro-3H-pyrano[4,3-d]pyrimidin-2-yl)methyl)-3-(pyridin-4-yl)-N-(thiophen-2-ylmethyl)propanamide], for which the IC50 in assay [1] worked out at 962 ± 13 nM.
On the same count and under the same terms, for `CCN(Cc1nc2c(c(=O)[nH]1)COCC2)C(=O)CCc1ccccc1` [Example 15, N-Ethyl-N-((4-oxo-4,5,7,8-tetrahydro-3H-pyrano[4,3-d]pyrimidin-2-yl)methyl)-3-phenylpropanamide] the value was 4780 ± 400 nM.
With “N-((4-0xo-4,5,7,8-tetrahydro-3H-pyrano[4,3-d]pyrimidin-2-yl)methyl)-3-phenyl-N-(thiophen-3-ylmethyl)propanamide [Example 18]”, the values for the IC50 (in assay [1]; against Human PARP1) were 1030 ± 70 nM and 71000 ± 18000 nM, respectively.
